# scFv variants of Ab-14 (light chain) against a SARS-CoV-2 spike peptide

Target: peptide PDVDLGDISGINAS, taken from heptad repeat 2 (HR2) of SARS-CoV-2 spike.

Parent: Ab-14, a human scFv built as VH, a (GGGGS)3 linker, VL. Only the CDRs of the light chain vary.
VH: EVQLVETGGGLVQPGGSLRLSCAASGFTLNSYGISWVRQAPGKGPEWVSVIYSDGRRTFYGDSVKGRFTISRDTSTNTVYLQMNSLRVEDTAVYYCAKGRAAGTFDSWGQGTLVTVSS
VL: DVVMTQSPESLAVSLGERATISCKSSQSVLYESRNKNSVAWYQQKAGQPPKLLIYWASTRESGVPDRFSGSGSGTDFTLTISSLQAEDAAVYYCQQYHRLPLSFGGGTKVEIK

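The parent was found by panning a naive human phage display library on the peptide. Variants in AAYL50 differ from the parent at up to three CDR positions; double and triple changes were sampled at random. The scFvs were displayed on barcoded MATa yeast, the peptide on MATalpha yeast. Pairs that bind mate more often; barcode pairs of the diploids are counted by sequencing. A regression on co-assayed BCL2-family reference pairs converts the normalised counts of each replicate to an apparent Kd. There are three technical replicates.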

Changes read parent residue, position, new residue, counted from the first residue of the VL shown. This list gathers variants with a substitution at P101 (VL, numbered from residue 1). Numbers give log10(Kd / nM), so 0 is 1 nM and 3 is 1 µM. Smaller is tighter. A mean of the replicates is given; it leaves out those without a signal. A pair that was not seen in that replicate is written "nd"; this usually means weak binding, but a binder can also be missed. Background: pairings of library AAYL50 with three empty control strains gave a value in 18% of cases (median 4.19, 5th percentile 2.99). Values in that range, when seen in few replicates, are hard to tell from nonspecific mating.

changes	log10 Kd, replicates	mean log10 Kd (nM)
A40V/Y97H/P101Y	5.22 nd nd	5.22
N35M/E61L/P101Q	1.04 1.35 1.38	1.26
S26K/L30M/P101C	2.48 3.45 nd	2.97
A40G/S62G/P101I	nd 3.51 nd	3.51
K24V/L30M/P101N	nd 2.71 nd	2.71
E32V/E61I/P101I	2.88 2.29 2.96	2.71
S28W/Y31K/P101V	nd 5.28 nd	5.28
R34W/P101F/S103H	1.29 1.60 1.46	1.45
S25P/S33W/P101S	3.25 2.00 2.92	2.73
S38M/Q95D/P101G	nd nd nd	nd
E32T/W56E/P101E	0.22 0.47 0.57	0.42
Y31N/S38N/P101Y	1.20 0.98 0.67	0.95
T59D/L100H/P101E	nd nd nd	nd
K24R/R99M/P101V	nd nd nd	nd
K24R/S62F/P101R	2.74 nd 2.51	2.63
N37K/R99C/P101R	2.20 2.92 nd	2.56
L30H/P101T	0.60 0.89 0.68	0.72
N37E/V39G/P101I	4.75 4.36 4.18	4.43
P101E	0.55 0.82 0.68	0.68
A40H/L100D/P101I	4.52 nd 3.72	4.12
S28H/Q95H/P101Q	nd nd nd	nd
Y97C/L100A/P101D	1.33 1.41 1.22	1.32
S25H/P101R/S103K	2.28 2.29 1.76	2.11
S33N/H98N/P101F	2.46 1.89 3.27	2.54
S28Q/L100E/P101V	nd nd nd	nd
Q96G/P101W/S103E	5.38 nd nd	5.38
Q27T/S58Y/P101K	1.75 1.48 nd	1.62
K36F/V39C/P101G	nd nd nd	nd
K24I/V29H/P101E	nd nd nd	nd
S25W/E32M/P101H	nd nd nd	nd
Y31T/S58L/P101V	1.71 1.75 1.63	1.70
P101A	2.00 2.29 0.51	1.60
W56K/R60Q/P101Y	nd nd 4.85	4.85
Q27W/S38V/P101R	nd nd nd	nd
E61A/P101G	1.12 1.07 1.61	1.27
R34A/N37P/P101Q	3.79 nd 2.43	3.11
S25E/Q95T/P101F	nd nd 3.93	3.93
N37W/W56H/P101I	0.71 0.81 0.59	0.70
Y31K/R99N/P101H	4.19 nd nd	4.19
Y31L/A40T/P101M	nd 5.06 4.34	4.70
S25Q/K36R/P101R	nd 3.30 4.40	3.85
E32C/T59N/P101W	nd nd nd	nd

Again, the first 4 entries without any signal:

changes	log10 Kd, replicates	mean log10 Kd (nM)
S38M/Q95D/P101G	nd nd nd	nd
T59D/L100H/P101E	nd nd nd	nd
K24R/R99M/P101V	nd nd nd	nd
S28H/Q95H/P101Q	nd nd nd	nd

The measurements come from Engelhart et al. 2022 (doi:10.1038/s41597-022-01779-4) through the FLAb antibody collection.